The numbers were not newly measured in article PMC9860728, “Identification of New N-methyl-piperazine Chalcones as Dual MAO-B/AChE Inhibitors” (Pharmaceuticals, 2023), which cites them from elsewhere.

By UniProt entry, the sequences of proteins in these tests, tags left out. Residues count along the entry.
UniProt O42275, 24-633 limits assumed: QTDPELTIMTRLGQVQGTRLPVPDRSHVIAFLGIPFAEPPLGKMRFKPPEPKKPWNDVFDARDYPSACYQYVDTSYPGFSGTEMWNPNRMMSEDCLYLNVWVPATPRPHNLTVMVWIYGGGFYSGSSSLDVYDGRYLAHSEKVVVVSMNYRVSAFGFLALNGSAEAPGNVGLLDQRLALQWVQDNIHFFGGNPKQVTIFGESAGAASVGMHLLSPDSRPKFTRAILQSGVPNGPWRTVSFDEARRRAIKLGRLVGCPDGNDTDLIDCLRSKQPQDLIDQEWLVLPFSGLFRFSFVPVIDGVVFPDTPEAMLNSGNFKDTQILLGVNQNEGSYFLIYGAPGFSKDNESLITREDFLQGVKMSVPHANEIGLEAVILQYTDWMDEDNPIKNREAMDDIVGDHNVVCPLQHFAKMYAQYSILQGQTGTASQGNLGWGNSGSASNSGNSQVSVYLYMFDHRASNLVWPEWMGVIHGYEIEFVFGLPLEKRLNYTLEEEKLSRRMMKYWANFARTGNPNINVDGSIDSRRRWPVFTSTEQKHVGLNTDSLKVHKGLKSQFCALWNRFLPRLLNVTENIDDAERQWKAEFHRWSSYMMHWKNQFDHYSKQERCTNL

Broadly, the IC50 is the concentration at which inhibition is half-maximal.

The target in this data set is AChE (Electrophorus electricus, UniProt O42275). As to conditions: read-out: IC50 (μM) AChE; cited from earlier work.

Consider `CN(C)c1ccc(/C=C/C(=O)c2ccc(N3CCNCC3)cc2)cc1`, for which the IC50 is over 10 µM.
